Tests used:
CYP26A1 = test: RAMBA activity: change in CYP26A1 marker expression by qPCR in keratinocytes incubated with substance plus retinoic acid; settings: in combination with Retinsäure; result in words on Tabelle 1
Source text: Verschiedene kosmetische Wirkstoffe, die zur Stoffklasse der Azole gerechnet werden können, wurden auf eine mögliche RAMBA-Aktivität hin untersucht. Zu diesem Zweck wurden humane Keratinocyaten für 16 Stunden mit den entsprechenden Substanzen in Kombination mit Retinsäure inkubiert und anschließend mittels qPCR die Expressionsänderung des Markers CYP26A1 verfolgt. Das Enzym CYP26A1 bewirkt die Metabolisierung der Retinsäure und wird durch die Retinsäure selber induziert, wodurch eine Feedbak-Regulation der Retinsäurekonzentration in der Zelle ermöglicht wird. […] Tabelle 1

Kollagen-Neusynthese = test: Collagen neosynthesis: P1NP secreted into the medium of a fibroblast / 3D epidermis model co-culture; assay type: cell-based
Source text: Ein in der Kosmetik relevanter Parameter für die Anti-Aging-Leistung eines Produktes ist die Induktion der Kollagen-Neusynthese. […] Zum Nachweis der Kollagen-Neusynthese wurde ein Co-Kultur-System verwendet, das aus einer zweidimensionalen Fibroblasten-Kultur besteht, auf die in einem Insert ein dreidimensionales Epidermismodell aufgesetzt wurde. Über das Nährmedium kann ein Stoffaustausch zwischen den Fibroblasten und den Keratinocyten des Epidermismodells erfolgen. […] Als Kontrollen für die Syntheseinduktion wurden Retinsäure und Retinol eingesetzt.

With `CC(=O)N1CCN(c2ccc(OC[C@H]3CO[C@](Cn4ccnc4)(c4ccc(Cl)cc4Cl)O3)cc2)CC1` (racemic) [Ketokonazol] the “Induktion von CYP26A1” value (CYP26A1) was “deutlich vermindert”, the P1NP (Kollagen-Neusynthese; 50µM, Co-Kultur-System, P1NP in medium, unbehandelt = 107) was 196 µg/mL and the “Induktion der Kollagensynthese” value (Kollagen-Neusynthese; result in words on Tabelle 2) was “zeigen eine Induktion der Kollagensynthese”.
